Experimental data reported in PubChem BioAssay AID463254 (National Center for Advancing Translational Sciences (NCATS), 2010).
This is a selection; strong and weak results do not stand in their true shares. Some of these compounds have results that are not shown, active ones among them. Activity calls are given as the source filed them. The call rests on the fitted dose curve; in most records, active means well fitted inhibition curve with a large enough effect; inconclusive means small, poorly fitted or top-dose-only effect, or effect the other way; inactive means flat fitted curve, though single readings scatter.

By UniProt entry, the sequences of proteins in these tests, tags left out.
UniProt O75604, whole entry: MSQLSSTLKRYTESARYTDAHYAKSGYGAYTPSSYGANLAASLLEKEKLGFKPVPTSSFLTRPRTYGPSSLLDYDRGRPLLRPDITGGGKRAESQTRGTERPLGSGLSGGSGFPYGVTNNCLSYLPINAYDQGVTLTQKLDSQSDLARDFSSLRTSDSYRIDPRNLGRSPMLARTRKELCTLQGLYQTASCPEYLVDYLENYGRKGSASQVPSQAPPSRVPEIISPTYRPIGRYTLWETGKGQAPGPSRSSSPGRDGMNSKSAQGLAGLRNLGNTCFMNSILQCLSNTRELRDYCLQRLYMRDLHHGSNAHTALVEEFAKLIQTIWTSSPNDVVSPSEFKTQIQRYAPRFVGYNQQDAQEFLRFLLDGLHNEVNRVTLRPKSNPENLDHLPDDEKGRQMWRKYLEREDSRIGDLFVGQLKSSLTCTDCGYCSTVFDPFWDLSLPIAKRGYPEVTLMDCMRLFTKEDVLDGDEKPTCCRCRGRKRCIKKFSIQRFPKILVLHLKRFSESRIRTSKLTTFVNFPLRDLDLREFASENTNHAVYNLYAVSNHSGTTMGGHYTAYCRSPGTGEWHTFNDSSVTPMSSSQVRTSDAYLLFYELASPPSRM

molecular target: Ubiquitin carboxyl-terminal hydrolase 2 (Homo sapiens) (UniProt O75604); test: qHTS Assay for Inhibitors of Ubiquitin-specific Protease USP2a Using CHOP2 as the Reporter; conditions: USP2 core, Ub-CHOP2 coupled fluorogenic reporter, 485/531; at 38.3 µM (top of the series);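 further: plate controls were DMSO wells for no effect and full inhibition by NEM control for full effect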
Source text: NIH Molecular Libraries Screening Centers Network [MLSCN] NIH Chemical Genomics Center [NCGC] MLSCN Grant: XO1-MH079852-01 PI Name: Nicholson, Ben. Progenra Inc, Malvern, PA NCGC Assay Overview: Homeostasis of cellular proteins is maintained through a combination of synthesis and degradation. The pathway that accounts for the majority of protein degradation is the ubiquitin-proteasomal pathway. Ubiquitin (Ub) is highly conserved in all cells and the generation of a multi-Ub chain typically targets proteins for degradation by the proteasome. However, ubiquitination is highly reversible and dynamic. Deubiquitination, the reverse process, is catalyzed through the action of enzymes referred to as isopeptidases or deubiquitinating enzymes (DUBs). This group of enzymes is collectively responsible for maintaining adequate pools of free ubiquitin and regulating the ubiquitination status of cellular proteins. The class of DUBs referred to as the ubiquitin-specific proteases (USP) family functions endoproteolytically to cleave Ub chains from a wide range of protein substrates. USP2a deubiquitinates fatty acid synthase (FASN) which has recently been identified as an emerging oncology target. To identify inhibitors of USP2a a cell-free assay was employed. […] The reporter enzyme chosen is an enterokinase called CHOP2, which is activated when the Ub is cleaved by USP2. The free and now activated reporter can subsequently act on its reporter substrate. Thus, this coupled assay gives a fluorescent read-out at excitation/emission wavelengths of 485/531. The assay was developed by Progenra, Inc. and has been licensed for sale by LifeSensors, Inc. as Ub-CHOP2-Reporter-Kit (#PR1101).
NCGC Assay Protocol Summary: The assay buffer, prepared fresh at the day of the assay, contains 20mM Tris-HCl pH 8.0, 2mM CaCl2, 2mM beta-Mercaptoethanol, 0.05% CHAPS. 3ul of 20nM (10nM final) USP2 core, which is stored on ice, is dispensed into a medium-binding black solid Kalypsys 1,536 well plate using the Kalypsys dispenser. The assay plate is then pinned with 23nL compound with the Kalypsys pintool in columns 5-48. The controls are pinned as follows: column 1 two-fold dilutions of 2M NEM in duplicate; column 2 2M NEM (final concentration 38.2mM); column 3&4 DMSO. The assay plate is incubated at RT for 30min. Subsequently, 1.5uL of 100nM (25nM final) Ub-CHOP2 and 1.5uL of 100nM (25nM final) Reporter Substrate (both stored on ice and protected from light) were dispensed into the plate using the Kalypsys dispenser. Plates were read after 60min RT incubation on a ViewLux (Perkin Elmer) plate reader using the following wavelengths Ex 485nm /Em 531nm. Data were normalized to the to AC100 inhibition (NEM). Concentration-response curves were fitted to the normalized data and the concentration-response curves were then classified based on curve quality (r2), response magnitude and degree of measured activity. The time zero reading was used to flag fluorescence artifacts. Keywords: ubiquitination, deubiquitination, proteases, profluorescent, MLSMR, MLPCN, NIH Roadmap, qHTS, NCGC

Compound | activity change, negative = inhibition
CN1[C@@H]2CC[C@H]1CC(OC(=O)C(O)(c1ccccc1)c1ccccc1)C2 (some centres undefined) | inactive: 3.25%
O=C(NCC1(N2CCCCC2)CCCCC1)c1cc([N+](=O)[O-])ccc1Cl | inactive: -11.5%
Cc1ccc(C(=O)NCC2(N3CCCCC3)CCCCC2)cc1 | inactive: 3.57%
COc1cc(SC)ccc1C(=O)NCC1(N(C)C)CCCCC1 | inactive: 3.56%
CCN(CC)CC(C)C(C)OC(=O)C(O)(c1ccccc1)c1ccccc1 (centres undefined) | inactive: 0.854%
CC(C)N1C(=O)CC2(CCN(CCOC(=O)C(O)(c3ccccc3)c3ccccc3)CC2)C1=O | inactive: 4.49%
CN(C)c1ccc(C(=O)NCC2(N(C)C)CCCCC2)cc1 | inactive: 0.385%
CN(C)C1CCCC1OC(=O)C(O)(c1ccccc1)c1ccccc1 (centres undefined) | inactive: -1.78%
Cc1ccccc1C(=O)NCC1(N2CCCCC2)CCCCC1 | inactive: 2.86%
COc1ccc(C(=O)NCC2(N(C)C)CCCCC2)cc1 | inactive: 2.98%
O=C(NCC1(N2CCCCC2)CCCCC1)c1cccc(Br)c1 | inactive: 0.789%
CCN1CCCC(OC(=O)C2(O)c3ccccc3C=Cc3ccccc32)C1 (centres undefined) | inactive: 1.42%
Cc1cc(C(=O)NCC2(N3CCCCC3)CCCCC2)ccc1[N+](=O)[O-] | inactive: -0.282%
O=C(NCC1(N2CCCCC2)CCCCC1)c1cc(F)c(F)cc1Cl | inactive: 1.36%
C=CCN1CCN(CCOC(=O)C(O)(c2ccccc2)c2ccccc2)CC1 | inactive: 2.43%
COc1cc(C(=O)NCC2(N(C)C)CCCCC2)c([N+](=O)[O-])cc1OC | inactive: -1.2%
CN(C)C1(CNC(=O)c2ccc(Br)cc2)CCCCC1 | inactive: 3.28%
O=C(NCC1(N2CCCCC2)CCCCC1)c1cccc(Cl)c1 | inactive: 2.91%
COc1ccc(Cl)cc1C(=O)NCC1(N(C)C)CCCCC1 | inactive: 1.3%
COc1cccc(C(=O)NCC2(N3CCCCC3)CCCCC2)c1 | inactive: 1.46%
O=C(OC1CN2CCC1CC2)C(CO)(c1ccccc1)c1ccccc1 (centres undefined) | inactive: 0.217%
CC(C)Oc1ccc(C(=O)NCC2(N(C)C)CCCCC2)cc1 | inactive: 7.05%
CN(C)c1cccc(C(=O)NCC2(N(C)C)CCCCC2)c1 | inactive: 2.39%
COc1ccc(Br)c(C(=O)NCC2(N3CCCCC3)CCCCC2)c1 | inactive: -6.12%
